# Measured values taken from PubChem BioAssay AID504905 (The Scripps Research Institute Molecular Screening Center, 2011).
# Chains of the proteins cited; added tags and fusions are not shown.
# UniProt P47898, whole entry, looked up: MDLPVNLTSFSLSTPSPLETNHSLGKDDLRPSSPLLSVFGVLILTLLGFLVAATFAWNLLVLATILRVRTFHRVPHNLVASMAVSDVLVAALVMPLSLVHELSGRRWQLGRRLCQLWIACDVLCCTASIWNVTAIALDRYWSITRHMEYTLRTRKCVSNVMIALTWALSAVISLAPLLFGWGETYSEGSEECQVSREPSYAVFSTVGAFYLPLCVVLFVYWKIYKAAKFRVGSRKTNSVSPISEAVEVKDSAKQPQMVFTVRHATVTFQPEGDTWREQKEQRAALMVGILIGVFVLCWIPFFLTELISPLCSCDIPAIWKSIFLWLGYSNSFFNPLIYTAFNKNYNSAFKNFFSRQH
# Only a part is listed here, and it is no random draw. Active and inactive are the calls of the source. Rule as the data show it: active = activation above about 17%; inactive = the rest.
# Molecular target: 5-hydroxytryptamine receptor 5A (Homo sapiens) (UniProt P47898)
# Assay: activation of human 5-HT5A receptor – cell-based, luminescence, counter-screen for OPRM1-OPRD1 heterodimer agonist project (AID 504905);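 also: 0% = vehicle-treated cells and 100% = reference agonist response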
# Details: HTR5A agonist counterscreen, at 9.3 µM, hits give high values
row,Structure (SMILES),activation
1,O=[N+]([O-])c1cc(Oc2ccc([N+](=O)[O-])cc2C(F)(F)F)cc([N+](=O)[O-])c1,active: 18.1%
2,Cc1ccc(C)c(CN2CCC(n3nnc4cc(F)ccc43)CC2)c1,inactive: 0.7%
3,CN1CN(c2ccccc2)C2(CCN(CCCSc3ccccc3NC(=O)/C=C/c3ccccc3)CC2)C1=O,inactive: 8.16%
4,CN(C(=O)Cc1ccc(Cl)c(Cl)c1)[C@H]1CC[C@@]2(CCCO2)C[C@@H]1N1CCCC1,inactive: 2.96%
5,CCn1c(N)[n+](CC(=O)Nc2ccc(SC(F)F)cc2)c2ccccc21,inactive: 2.41%
